# The list shows a part of the results, in another mix than the full data. The source made the active and inactive calls. Rule as the data show it: active = activation above about 22%; inactive = the rest.
# The chains behind the UniProt entries cited, without tags or fusion partners. Residues count along the entry.
# UniProt P37231, 232-505 limits assumed: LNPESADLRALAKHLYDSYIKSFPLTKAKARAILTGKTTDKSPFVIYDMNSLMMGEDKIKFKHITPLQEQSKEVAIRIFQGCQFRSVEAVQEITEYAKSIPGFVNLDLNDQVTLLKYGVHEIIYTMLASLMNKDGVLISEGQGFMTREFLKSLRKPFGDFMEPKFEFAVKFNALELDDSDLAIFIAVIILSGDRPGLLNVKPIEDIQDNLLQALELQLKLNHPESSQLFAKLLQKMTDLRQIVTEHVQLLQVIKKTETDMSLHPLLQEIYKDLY
# UniProt Q15596, whole entry partner: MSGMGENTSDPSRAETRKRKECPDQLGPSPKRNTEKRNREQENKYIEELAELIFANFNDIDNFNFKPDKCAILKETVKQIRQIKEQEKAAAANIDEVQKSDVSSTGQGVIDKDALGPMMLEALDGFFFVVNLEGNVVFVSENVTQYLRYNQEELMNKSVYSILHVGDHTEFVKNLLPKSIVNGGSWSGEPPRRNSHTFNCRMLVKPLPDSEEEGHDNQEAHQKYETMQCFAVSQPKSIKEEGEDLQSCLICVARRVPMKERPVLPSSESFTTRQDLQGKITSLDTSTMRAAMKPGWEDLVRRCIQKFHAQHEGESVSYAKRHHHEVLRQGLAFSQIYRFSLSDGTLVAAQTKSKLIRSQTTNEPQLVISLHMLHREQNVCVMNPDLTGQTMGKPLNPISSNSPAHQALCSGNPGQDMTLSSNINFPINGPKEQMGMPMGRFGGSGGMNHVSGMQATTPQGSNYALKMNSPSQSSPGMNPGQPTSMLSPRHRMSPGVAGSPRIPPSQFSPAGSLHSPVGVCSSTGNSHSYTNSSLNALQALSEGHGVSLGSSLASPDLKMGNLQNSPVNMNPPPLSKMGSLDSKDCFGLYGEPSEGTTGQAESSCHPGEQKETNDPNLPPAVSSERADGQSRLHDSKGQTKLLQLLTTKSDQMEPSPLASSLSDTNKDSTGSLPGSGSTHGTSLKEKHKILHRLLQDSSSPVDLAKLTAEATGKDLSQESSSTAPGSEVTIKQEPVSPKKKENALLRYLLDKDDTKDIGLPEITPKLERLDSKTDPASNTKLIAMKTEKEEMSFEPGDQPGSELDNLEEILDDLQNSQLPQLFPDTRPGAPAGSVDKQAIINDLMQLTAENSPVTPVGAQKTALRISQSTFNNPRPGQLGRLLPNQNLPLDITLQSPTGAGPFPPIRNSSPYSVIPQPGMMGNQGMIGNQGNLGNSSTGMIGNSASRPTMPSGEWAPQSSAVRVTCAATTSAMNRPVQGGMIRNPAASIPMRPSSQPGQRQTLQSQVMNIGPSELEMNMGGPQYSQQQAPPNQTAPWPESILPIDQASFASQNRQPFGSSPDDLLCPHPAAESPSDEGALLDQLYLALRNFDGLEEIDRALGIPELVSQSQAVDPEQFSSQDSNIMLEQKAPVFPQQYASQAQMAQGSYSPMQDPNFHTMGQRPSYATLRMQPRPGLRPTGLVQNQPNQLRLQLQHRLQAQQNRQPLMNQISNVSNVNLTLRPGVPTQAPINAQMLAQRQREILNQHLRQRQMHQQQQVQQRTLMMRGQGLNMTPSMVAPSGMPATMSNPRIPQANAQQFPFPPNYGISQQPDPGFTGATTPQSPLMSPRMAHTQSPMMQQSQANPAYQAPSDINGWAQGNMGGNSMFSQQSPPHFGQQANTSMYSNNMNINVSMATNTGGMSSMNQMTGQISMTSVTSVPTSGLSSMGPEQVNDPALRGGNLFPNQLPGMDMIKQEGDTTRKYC
# Molecular target: Peroxisome proliferator-activated receptor gamma (Homo sapiens) (UniProt P37231)
# Assay: compounds enhancing SRC-2 coactivator binding to PPARgamma – biochemical, HTS, primary screen (AID 1032);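 also: 0% = vehicle and 100% = reference agonist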
# Conditions: PPARgamma LBD-SRC-2 recruitment, at 8 µM, hits give high values
row,Structure (SMILES),activation
1,O=C(NCC1(N2CCOCC2)CCCCC1)c1cc(=O)[nH]c2ccccc12,inactive: -0.69%
2,CN1CCN(CCOC(=O)C(O)(c2ccccc2)c2ccccc2)CC1,inactive: -7.29%
3,COc1ccc(NC2CCN(C(=O)OC(C)(C)C)CC2)cc1,inactive: -9.34%
4,N#CC1(Nc2ccccc2)CCN(CCc2ccccc2)CC1,inactive: -0.37%
5,O=C(NCC1(N2CCCCC2)CCCCC1)c1cccc([N+](=O)[O-])c1,inactive: -6.76%
6,CN1CCC(Nc2cccc(F)c2)CC1,inactive: -2.47%
7,CC(C)c1ccc(NC2CCN(C(=O)OC(C)(C)C)CC2)cc1,inactive: -11.3%
8,COc1ccc(CN(CCCl)CCCl)cc1Cl,inactive: -6.66%
9,CN(C)c1cccc(C(=O)NCC2(N3CCCCC3)CCCCC2)c1,inactive: -5.05%
10,O=C(OC1CN2CCC1CC2)C1c2ccccc2Oc2ccccc21 (stereo not given),inactive: 1.57%
11,CCOC(=O)N1CCC(Nc2ccc(OC)cc2)CC1,inactive: 15.3%
12,O=C(NCC1(N2CCOCC2)CCCCC1)c1cc2ccccc2o1,inactive: -6.96%
13,COc1ccc(C(=O)NCC2(N3CCCCC3)CCCCC2)c(OC)c1OC,inactive: -3.05%
14,COc1ccc(NC2CCN(CCc3ccccc3)CC2)c(OC)c1,inactive: 5.92%
15,CN(C)c1ccc(C(=O)NCC2(N3CCCCC3)CCCCC2)cc1,inactive: 5.09%
16,CCN1CCC(Nc2cccc(F)c2)CC1,inactive: 11.5%
17,COc1cc(OC)cc(C(=O)NCC2(N3CCOCC3)CCCCC2)c1,inactive: 3.8%
18,CCC(CO)(C(=O)OC1CN2CCC1CC2)c1ccccc1 (stereo not given),inactive: -2.61%
19,CC(C)(C)OC(=O)N1CCC(Nc2ccccc2)CC1,inactive: 3.44%
20,CCOc1ncccc1C(=O)NCC1(N2CCOCC2)CCCCC1,inactive: -0.96%
21,O=C(OC1CN2CCC1CC2)C1c2ccccc2C=Cc2ccccc21 (stereo not given),inactive: -1.92%
22,N/C(=N\O)c1c(N)no[n+]1[O-],inactive: 5.51%
23,COc1ccc(C(=O)NCC2(N3CCOCC3)CCCCC2)cc1OC,inactive: -0.71%
24,c1ccc(CN2CCC(Nc3ccccc3)CC2)cc1,inactive: 0.44%
25,N#Cc1ccc(C(=O)NCC2(N3CCCCC3)CCCCC2)cc1,inactive: 0.18%

# Source: PubChem BioAssay AID1032 (The Scripps Research Institute Molecular Screening Center, 2008)
